Measurements published in ChEMBL document CHEMBL4765413, “Discovery of novel anti-angiogenesis agents. Part 11: Development of PROTACs based on active molecules with potency of promoting vascular normalization” (Eur J Med Chem, 2020).

Test system: EA.hy 926
Assay: Antiangiogenic activity in human EA.hy 926 cells measured after 24 hrs by MTT assay
Format: functional, cell-based

Row | SMILES | Activity
1 | Cc1ccc(F)c(NC(=O)Nc2ccc(-c3cccc4c3c(N)nn4C(=O)CCCCCCCCCCC(=O)N[C@H](C(=O)N3C[C@H](O)C[C@H]3C(=O)NCc3ccc(-c4scnc4C)cc3)C(C)(C)C)cc2)c1 | Dose-dependent effect
2 | Cc1ncsc1-c1ccc(CNC(=O)[C@@H]2C[C@@H](O)CN2C(=O)[C@@H](NC(=O)CCCCCCCCCCC(=O)n2nc(N)c3c(-c4cccc(NC(=O)Nc5cccc(C(C)C)c5)c4)cccc32)C(C)(C)C)cc1 | Dose-dependent effect
